One experiment concerns the target Jarid1A (Homo sapiens (Human), UniProt P29375). Put plainly: Jarid1A in vitro enzyme inhibition assay (TR-FRET). The class given is biochemical. The following applies: 1 nM Jarid1A, 300 nM H3K4me3-biotin peptide, 2 μM alpha-ketoglutaric acid. An excerpt:
This assay determines the ability of a test compound to inhibit Jarid1A, Jarid1B, and JMJD2C demethylase activity. Baculovirus expressed Jarid1A (GenBank Accession #NM_001042603, AA1-1090) was purchased from BPS Bioscience (Cat#50110). Baculovirus expressed Jarid1B (GenBank Accession #NM_006618, AA 2-751) was purchased from BPS Bioscience (Cat #50121) or custom made by MolecularThroughput. Baculovirus expressed JMJD2C (GenBank Accession #BC143571, AA 2-372) was purchased from BPS Bioscience (Cat#50105).
The enzymatic assay of Jarid1A activity is based upon Time Resolved-Fluorescence Resonance Energy Transfer (TR-FRET) detection. The ability of test compounds to inhibit the activity of Jarid1A was determined in 384-well plate format under the following reaction conditions: 1 nM Jarid1A, 300 nM H3K4me3-biotin labeled peptide (Anaspec cat #64357), 2 μM alpha-ketoglutaric acid in assay buffer of 50 mM HEPES, pH7.3, 0.005% Brij35, 0.5 mM TCEP, 0.2 mg/ml BSA, 50 μM sodium L-ascorbate, and 2 μM ammonium iron(II) sulfate. Reaction product was determined quantitatively by TR-FRET after the addition of detection reagent Phycolink Streptavidin-allophycocyanin (Prozyme) and Europium-anti-mono- or di-methylated histone H3 lysine 4 (H3K4me1-2) antibody (PerkinElmer) in the presence of 5 mM EDTA in LANCE detection buffer (PerkinElmer) at a final concentration of 25 nM and 1 nM, respectively. […]
On the technique in general: TR-FRET usually uses a lanthanide donor and a delayed reading to cut background.

Chains of the proteins cited; added tags and fusions are not shown. Residues count along the entry.
UniProt P29375, 1-1090: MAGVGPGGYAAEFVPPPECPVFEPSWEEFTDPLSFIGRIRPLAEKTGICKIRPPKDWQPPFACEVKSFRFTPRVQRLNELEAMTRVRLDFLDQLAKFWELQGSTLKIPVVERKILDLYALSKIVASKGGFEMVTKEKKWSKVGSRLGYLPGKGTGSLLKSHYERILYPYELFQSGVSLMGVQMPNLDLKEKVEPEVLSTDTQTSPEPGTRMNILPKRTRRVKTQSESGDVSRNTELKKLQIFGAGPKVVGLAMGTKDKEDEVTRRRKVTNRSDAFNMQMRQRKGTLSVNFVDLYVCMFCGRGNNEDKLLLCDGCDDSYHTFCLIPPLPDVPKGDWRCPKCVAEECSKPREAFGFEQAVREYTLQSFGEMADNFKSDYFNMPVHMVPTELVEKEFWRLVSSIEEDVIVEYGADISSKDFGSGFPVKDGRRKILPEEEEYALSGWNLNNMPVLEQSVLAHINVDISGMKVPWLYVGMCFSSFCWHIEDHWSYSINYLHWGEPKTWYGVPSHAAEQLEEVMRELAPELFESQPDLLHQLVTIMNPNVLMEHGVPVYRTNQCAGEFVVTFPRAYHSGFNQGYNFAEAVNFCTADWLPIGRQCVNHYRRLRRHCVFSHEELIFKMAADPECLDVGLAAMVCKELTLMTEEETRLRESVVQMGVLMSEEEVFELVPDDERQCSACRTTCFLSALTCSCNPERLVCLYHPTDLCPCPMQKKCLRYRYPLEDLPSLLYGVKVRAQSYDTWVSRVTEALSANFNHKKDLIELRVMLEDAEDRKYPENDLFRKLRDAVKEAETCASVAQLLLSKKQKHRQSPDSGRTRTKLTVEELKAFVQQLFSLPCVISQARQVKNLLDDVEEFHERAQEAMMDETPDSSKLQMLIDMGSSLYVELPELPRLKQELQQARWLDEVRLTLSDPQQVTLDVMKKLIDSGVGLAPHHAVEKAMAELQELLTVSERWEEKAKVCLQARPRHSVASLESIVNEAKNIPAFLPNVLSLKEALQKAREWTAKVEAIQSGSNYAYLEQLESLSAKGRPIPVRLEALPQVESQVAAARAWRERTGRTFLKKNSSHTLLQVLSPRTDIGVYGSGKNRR
UniProt Q9UGL1, 2-751: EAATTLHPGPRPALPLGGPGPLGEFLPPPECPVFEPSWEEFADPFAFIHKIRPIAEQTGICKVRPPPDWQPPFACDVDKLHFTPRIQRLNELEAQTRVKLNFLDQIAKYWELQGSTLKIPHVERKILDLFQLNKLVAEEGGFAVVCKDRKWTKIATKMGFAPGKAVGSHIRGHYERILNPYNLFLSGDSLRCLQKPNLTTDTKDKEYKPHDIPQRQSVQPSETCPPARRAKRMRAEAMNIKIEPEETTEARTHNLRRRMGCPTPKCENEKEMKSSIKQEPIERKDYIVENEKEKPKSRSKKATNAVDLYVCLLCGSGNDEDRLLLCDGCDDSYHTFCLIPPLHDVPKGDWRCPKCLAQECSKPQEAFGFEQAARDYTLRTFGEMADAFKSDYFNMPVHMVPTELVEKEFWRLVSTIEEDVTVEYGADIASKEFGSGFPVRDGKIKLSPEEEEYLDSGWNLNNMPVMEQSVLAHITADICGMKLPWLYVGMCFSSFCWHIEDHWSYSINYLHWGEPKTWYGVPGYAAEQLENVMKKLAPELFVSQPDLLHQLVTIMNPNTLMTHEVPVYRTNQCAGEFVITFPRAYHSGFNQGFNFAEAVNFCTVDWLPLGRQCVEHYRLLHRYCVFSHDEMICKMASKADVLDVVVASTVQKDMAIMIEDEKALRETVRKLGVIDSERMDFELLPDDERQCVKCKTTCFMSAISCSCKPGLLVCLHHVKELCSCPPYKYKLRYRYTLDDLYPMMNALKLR

A further experiment concerns the target Jarid1B (Homo sapiens (Human), UniProt Q9UGL1). Put plainly: Jarid1B in vitro enzyme inhibition assay (TR-FRET). In kind it is biochemical. Particulars: 0.8 nM Jarid1B, 300 nM H3K4me3-biotin peptide, 2 μM alpha-ketoglutaric acid.

As a reminder, the IC50 is the concentration that inhibits the measured activity by half. A lower IC50 goes with higher potency. On to `O=C(O)c1ccncc1NCc1ccc(CO)cc1` [Example 6], for which the IC50 against Jarid1A was not above 100 nM. As to `CC(C)Oc1ccc(CNc2cnccc2C(=O)O)cc1` [Example 11, 3-{[4-(propan-2-yloxy)benzyl]amino}pyridine-4-carboxylic acid], the IC50 against Jarid1A and on Jarid1B was not above 100 nM in each case.

Values taken from patent US9611221B2, “Histone demethylase inhibitors” (CELGENE QUANTICEL RESEARCH, INC., priority 2012, dated 2017).
